{
  "sequences": {"note": "Protein sequences, listed by entry. Tags and fused reporters are not part of them. Lines headed by an entry give the natural chain unless they say otherwise; changes in a name come on top.", "UniProt P30874": "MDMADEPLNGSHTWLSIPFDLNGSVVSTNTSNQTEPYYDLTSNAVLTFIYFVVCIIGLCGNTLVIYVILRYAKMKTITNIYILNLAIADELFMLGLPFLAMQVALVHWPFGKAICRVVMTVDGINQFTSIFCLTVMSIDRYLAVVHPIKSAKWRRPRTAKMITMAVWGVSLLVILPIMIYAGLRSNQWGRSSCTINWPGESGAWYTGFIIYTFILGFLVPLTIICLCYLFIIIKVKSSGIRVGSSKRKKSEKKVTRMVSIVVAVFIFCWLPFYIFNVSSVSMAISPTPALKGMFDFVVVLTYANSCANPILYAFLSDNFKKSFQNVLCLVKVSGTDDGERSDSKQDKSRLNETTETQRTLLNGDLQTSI"},
  "source": "paper PMC7570871",
  "about": "“Evaluation of a New ^177Lu-Labeled Somatostatin Analog for the Treatment of Tumors Expressing Somatostatin Receptor Subtypes 2 and 5” (Molecules, 2020)",
  "target": "T1, human SST2 (Homo sapiens, UniProt P30874)",
  "T1 construct": "expressed in transfected cells; host or cells: HEK cells (HEK-SST2), stably transfected",
  "assay": "Competition binding assay with 125I-SS-14 on membranes of HEK-SST2 cells",
  "settings": "125I-SS-14 radioligand",
  "procedure": "Human Embryonic Kidney (HEK) cells were stably transfected with plasmids encoding the human SST2 and SST5 (HEK-SST2 and HEK-SST5) and cultivated as previously described. […] Nontransfected HEK cells were used as negative control.\nBinding assays were performed as described previously.",
  "data": [
    {"smiles": "CC(C)[C@@H]1NC(=O)[C@H](CCCCN)NC(=O)[C@@H](Cc2c[nH]c3ccccc23)NC(=O)[C@H](Cc2ccc(O)c(I)c2)NC(=O)[C@@H](NC(=O)[C@@H](Cc2ccc(N)c(I)c2)NC(=O)CN2CCN(CC(=O)O)CCN(CC(=O)O)CCN(CC(=O)O)CC2)CSSC[C@@H](C(=O)N[C@H](C(N)=O)[C@@H](C)O)NC1=O", "note": "[^natLu-DOTA-ST8950, metal not drawn]", "values": [
      {"measurement": "IC50", "result": 0.35, "unit": "nM"}
    ]}
  ]
}
